# Reference: patent US20240398943A1, “METHODS OF TREATING CANCER AND THE PHARMACEUTICAL COMPOSITIONS THEREOF” (SYSTIMMUNE, INC., priority 2021, published 2024)
# Where “and” joins values, the source holds several entries; their conditions need not be identical. Equal values may be shown once. Read-outs that look alike come from different tables or passages of the source.
# Key:
# [1] = system: FaDu cells (wild type EGFR) tumor xenograft
# Protocol: (§1) Xenotransplantation of human cancer cells into immunocompromised mice is a gold-standard model used for pre-clinical oncology research and testing of anti-cancer therapies. In general, human cancer cell lines are injected below the skin of the mouse. […] The primary outcome parameter is growth inhibition by the drug, for which tumor size is measured over time, often externally with calipers. After the tumor reaches a certain size, the mice are euthanized. Drug effects on the tumor are further analyzed on a tissue level or molecular level (e.g., DNA, proteins). The primary outcome parameter of a xenograft model for testing drug efficacy is the growth of the treated tumor versus control. Typically, xenograft tumors grow from 100 mm^3 (6 mm diameter) to 1000 mm^3 (12 mm diameter) in several weeks. The growth rate often declines with larger tumor sizes, as opposed to exponential growth in (2D) in vitro experiments. Tumor growth inhibition varies per drug and implanted cell line. The effect of therapeutics can be directly on tumor cells, or indirectly via the microenvironment such as the inhibition of vessel formation, or both.
# (§2) The experiment animals used were of Balb/c-nu mouse, female, ages 5^˜7 weeks, weight 17^˜21 g.
# To establish xenograft model of HNSCC, human head and neck cancer cells, FaDu cells, were transplanted into the mice to establish the xenograft model of HNSCC. FaDu is a cell line isolated from a hypopharyngeal tumor of a squamous cell carcinoma patient, which expresses wild type EGFR (ATCC).
# (§3) Each of the three human cancer cell lines was cultured in RPMI1640 medium containing 10% fetal bovine serum, collected in the exponential growth phase, resuspended in PBS to a suitable concentration, and used for subcutaneous tumor implantation in mice.
# When the tumor grew to an average volume of about 230 mm3, randomly grouped according to tumor size and mouse weight to establish human head and neck squamous cell carcinoma cells FaDu xenograft model.
# (§4) Tumor volume (mm3) V=½×(a×b)^2, where a represents the long diameter and b represents the short diameter. Relative tumor volume (RTV), RTV=Vt/V0, where V0 is the tumor volume at time 0 and Vt is the tumor volume after treatment at time t. The T/C value (%) is an indicator of the tumor response to treatment and is the most used evaluation indicator. T/C %=TRTV/CRTV×100%, where TRTV is treatment group average RTV and CRTV is control group average RTV. The T/C value (%) can also be calculated as T/C %=TTW/CTW×100%, where TTW is the average tumor weight at the end of the treatment group experiment and CTW is the average tumor weight at the end of the control group experiment.
# [2] = system: HCC827_936 cells tumor xenograft; assay: SI-B001 and Cis/Pem combination therapy in HCC827_936 xenograft model (Example 5); format: in vivo; conditions: for T/C / TGI / Tumor volume x ± SD: Day 24; for mice died before D24: 5 mice per group
# Excerpt: HCC827_936 cells express EGFR mutations of exon19del and exon20ins.
# [3] = system: HCC827_936 cells (EGFR exon19del and exon20ins) tumor xenograft; conditions: for T/C / TGI / Tumor volume x ± SD: Day 31; for mice died before D31: 5 mice per group
# Protocol: as §1, §2
# To establish xenograft model of NSCLC, two lung cancer cell lines expressing were used. Human lung adenocarcinoma cell line HCC827_936 was clonally derived from HCC827 cell line isolated from NSCLC tissue of a patient (ATCC). HCC827_936 cells express EGFR mutations of exon19del and exon20ins. The other lung cancer cell line, NCI-H1975 cells (ATCC), express the EGFR L858R/T790M double mutation.
# as §3
# When the tumor grew to an average volume of about 163 mm^3, randomly grouped according to tumor size and mouse weight to establish HCC827_936 xenograft model.
# as §4, with “(mm^3)” for “(mm3)”
# [4] = SI-B001 9 mg/kg/wk i.v. QW, 9 mg/kg
# [5] = SI-B001 16 mg/kg/wk i.v. QW, 16 mg/kg
# [6] = SI-B001 28 mg/kg/wk i.v. QW, 28 mg/kg
# [7] = all dose groups of the treatment
substance,measurement,setting,value
Cetuximab: monoclonal antibody targeting the extracellular domain of EGFR,TGI,"[1]; Cetuximab 10.5 mg/kg on day 0 then three doses of 6.5 mg/kg weekly, i.v.",74.27%
SI-B001: bispecific tetravalent anti-EGFR/HER3 monoclonal antibody (SEQ ID NO: 1-5),T/C,[2]; SI-B001 9 mg/kg/wk i.v. QW,89.2%
same,TGI,[2]; [4],10.8%
same,Tumor volume x ± SD,[2]; [4],682 mm^3 and 682.7 ± 174.7 mm^3
same,T/C,[2]; SI-B001 16 mg/kg/wk i.v. QW,76.9%
same,TGI,[2]; [5],23.1%
same,Tumor volume x ± SD,[2]; [5],588.1 mm^3 and 588.1 ± 101.7 mm^3
same,T/C,[2]; SI-B001 28 mg/kg/wk i.v. QW,26.9%
same,TGI,[2]; [6],73.1%
same,Tumor volume x ± SD,[2]; [6],205.7 mm^3 and 205.7 ± 76.1 mm^3
same,mice died before D24,[2]; SI-B001 single-agent high dose group #5 (28 mg/kg),2
same,mice died before D24,[2]; SI-B001 single-agent low dose group #3 (9 mg/kg),1
same,mice died before D24,[2]; SI-B001 single-agent middle dose group #4 (16 mg/kg),2
same,T/C,[3]; SI-B001 9 mg/kg/wk i.v. QW,110.7%
same,TGI,[3]; [4],−10.71% and −10.7%
same,Tumor volume x ± SD,[3]; [4],789.65 mm^3 and 789.7 ± 140.7 mm^3
same,T/C,[3]; SI-B001 16 mg/kg/wk i.v. QW,75.4%
same,TGI,[3]; [5],24.64% and 24.6%
same,Tumor volume x ± SD,[3]; [5],601.42 mm^3 and 601.4 ± 112.9 mm^3
same,T/C,[3]; SI-B001 28 mg/kg/wk i.v. QW,26.8%
same,TGI,[3]; [6],73.2%
same,Tumor volume x ± SD,[3]; [6],203.92 mm^3 and 203.9 ± 91.3 mm^3
same,mice died before D31,[3]; SI-B001 single-agent high dose (28 mg/kg),3
same,mice died before D31,[3]; SI-B001 single-agent low dose (9 mg/kg),1
same,mice died before D31,[3]; SI-B001 single-agent middle dose (16 mg/kg),3
same,TGI,[1]; SI-B001 single agent 6 mg/kg i.v. QW,96.76%
same,TGI,[1]; SI-B001 single agent 9 mg/kg i.v. QW,97.9%
same,TGI,[1]; SI-B001 single agent 12 mg/kg i.v. QW,98.8%
same,body weight / weight loss,[1]; [7],no significant weight loss
same,toxicity / safety assessment,[1]; [7],low toxicity and good safety
same,death of mice before the end of the experiment,"[1]; all dose groups of the treatment, 5 mice per group",no death
